# Experimental data taken from the OPERA property sets (Mansouri et al. 2018).
# Conditions: experimental values compiled from the literature
row,SMILES,solubility [mM]
1,CC(C)OP(=S)(OC(C)C)SCCNS(=O)(=O)c1ccccc1,0.0629
2,N=C(NN)N[N+](=O)[O-],22.6
3,O=[N+]([O-])OCC(O)CO[N+](=O)[O-],431
4,O=C(O)C(O)(c1ccccc1)c1ccccc1,6.18
5,O=[N+]([O-])c1ccccc1[N+](=O)[O-],0.791
6,CCOP(=S)(CC)Oc1cc(Cl)c(Cl)cc1Cl (stereo not drawn),0.00177
7,O=[N+]([O-])c1cc([N+](=O)[O-])c(O)c([N+](=O)[O-])c1O,21.8
8,C[As](=O)(O)O,1830
9,Nc1cc([N+](=O)[O-])cc([N+](=O)[O-])c1O,4.79
10,O=[N+]([O-])c1ccc([N+](=O)[O-])cc1,0.41
11,CN(C)P(=O)(N(C)C)n1nc(-c2ccccc2)nc1N,0.849
12,O=[N+]([O-])C(Cl)([N+](=O)[O-])[N+](=O)[O-],11.9
13,N=C(N)N[N+](=O)[O-],42.3
